# PubChem BioAssay AID687 (PCMD, 2007)
# By UniProt entry, the sequences of proteins in these tests, tags left out. Residues count along the entry.
# UniProt P03951, 19-387 limits assumed: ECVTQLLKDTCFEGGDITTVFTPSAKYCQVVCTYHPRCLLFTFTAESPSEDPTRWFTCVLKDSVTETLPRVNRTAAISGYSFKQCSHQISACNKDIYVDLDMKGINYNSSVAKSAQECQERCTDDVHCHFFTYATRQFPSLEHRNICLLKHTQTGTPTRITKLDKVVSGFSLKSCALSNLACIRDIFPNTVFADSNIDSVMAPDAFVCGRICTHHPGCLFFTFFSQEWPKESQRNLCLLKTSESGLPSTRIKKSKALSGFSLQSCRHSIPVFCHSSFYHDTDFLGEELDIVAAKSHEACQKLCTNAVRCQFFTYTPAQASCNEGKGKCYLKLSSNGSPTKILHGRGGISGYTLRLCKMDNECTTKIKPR
# UniProt P03951, 388-625 limits assumed: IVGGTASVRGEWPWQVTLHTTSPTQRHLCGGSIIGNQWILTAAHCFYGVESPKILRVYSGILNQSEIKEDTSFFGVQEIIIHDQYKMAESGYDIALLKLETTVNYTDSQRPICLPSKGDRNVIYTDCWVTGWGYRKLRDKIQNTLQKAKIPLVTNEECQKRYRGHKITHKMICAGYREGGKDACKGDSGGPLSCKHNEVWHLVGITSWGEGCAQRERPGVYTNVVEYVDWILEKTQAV
# The entries are a selection whose mix differs from that of the whole data set. Activity calls are given as the source filed them.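 How the source made its calls: active means inhibition above 40% in the primary screen; inactive means the rest.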
# Biological target: Coagulation factor XI (Homo sapiens) (UniProt P03951)
# Assay: human FXIa protease inhibitors, primary screen, biochemical, single compound per well (AID 687);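 further: 0% = enzyme without compound and 100% = blank wells lacking enzyme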
# Conditions: purified human FXIa, fluorogenic AMC substrate cleavage; at 10 µM; active compounds read high
row,SMILES,inhibition
1,c1ccc(CN2CCC(Nc3ccccc3)CC2)cc1,inactive: -1.93%
2,CCC(CO)(C(=O)OC1CN2CCC1CC2)c1ccccc1 (centres undefined),inactive: 7.23%
3,O=C(NCC1(N2CCOCC2)CCCCC1)c1cc2ccccc2o1,inactive: 5.55%
4,O=C(NCC1(N2CCOCC2)CCCCC1)c1cc(=O)[nH]c2ccccc12,inactive: -3.3%
